Experimental data: BindingDB's records for 7799399

Amino acid sequences for entries named in this document (tags omitted).
UniProt P41143, whole entry, looked up: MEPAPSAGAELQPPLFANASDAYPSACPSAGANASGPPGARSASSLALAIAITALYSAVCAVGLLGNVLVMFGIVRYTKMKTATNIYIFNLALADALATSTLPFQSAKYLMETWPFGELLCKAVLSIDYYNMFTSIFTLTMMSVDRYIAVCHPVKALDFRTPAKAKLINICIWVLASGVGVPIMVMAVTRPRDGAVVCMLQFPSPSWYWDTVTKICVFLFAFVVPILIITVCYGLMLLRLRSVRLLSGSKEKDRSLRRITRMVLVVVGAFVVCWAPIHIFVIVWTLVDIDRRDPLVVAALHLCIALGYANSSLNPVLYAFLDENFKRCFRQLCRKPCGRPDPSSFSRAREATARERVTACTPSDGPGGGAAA

Molecular target: Delta-type opioid receptor (Homo sapiens, UniProt P41143)
Assay: Binding affinity for delta opioid receptor in guinea pig brain membranes; using 2 nM [3H]DPDPE as radioligand

SMILES: CN(C(=O)Cc1ccc(Cl)c(Cl)c1)[C@H](CN1CCCC1)c1cccc(N)c1
- IC50: 89 nM
